Sampled rows, rich in hits. Any-hit rate of the full collection: about 16%.
uPA generation – cell surface uPA generation inhibition; cell surface uPA generation assay, qHTS; 330,000 tested, 0.31% active; Potency, µM (series often up to 38.3 µM), for the others: top-dose activity change, negative = inhibition, usual class: inhibitors; active means well fitted inhibition curve with a large enough effect; inconclusive means small, poorly fitted or top-dose-only effect; inactive means no such curve, though single readings can be large or run the other way; tested in mouse RAW 264.7 cells; further: potency means the concentration at half of the fitted maximal effect; on the % scale 0 is the no-effect control and ±100 the full control effect; nearly all actives have a fitted effect of over 55% in size
miR-21 FLuc – miR-21 reporter, rising signal | AID 2288 | HeLa miR-21 FLuc reporter, luciferase, 48 h | 340,000 tested, under 10 active | Potency, µM (titrated, usually from 38.3 µM), for the others: at the top dose reporter change, positive = more light; active = well fitted rising curve with a large enough effect; inconclusive = small, poorly fitted or top-dose-only effect; inactive = no such curve, though single readings can be large or run the other way;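 also: % of control where 0% means no effect; miR-21 action dims this reporter so a rising signal means less miR-21 action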
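Compounds were titrated across several concentrations (up to approximately 40 uM) and incubated 48 hours with HeLa miR-21-FLuc reporter cells (miR-21 target sequence downstream of FLuc, endogenous miR-21). Readout was firefly luciferase luminescence after lytic detection reagent.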
TDP1 cell noCPT – qHTS for Inhibitors of human tyrosyl-DNA phosphodiesterase 1 (TDP1): qHTS in cells in absence of CPT; Potency, µM (top dose mostly 46.2 µM), for the others: at the top dose activity change, negative = growth inhibition, actives largely listed as inhibitors; DT40 Tdp1-/- hTDP1 cells, no CPT, ATP luminescence, 48 h; 420,000 tested, 15% active; further: potency means the concentration at half of the fitted maximal effect; on the % scale 0 is the no-effect control and ±100 the full control effect; nearly all actives have a fitted effect of over 55% in size
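Readout: luminescence from CellTiter-Glo after 30 min in the dark at RT. Cells: DT40 Tdp1-/- with stable hTDP1, 400/well. Exposure: compounds alone, ≥48 hr, 37 °C.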
DT40 TDP1 CPT – growth inhibition of DT40 Tdp1-/-;hTDP1 cells with camptothecin (screen for TDP1 inhibitors) | chicken DT40 Tdp1-/-;hTDP1 cells + 20 nM CPT, ATP luminescence, 48 h | Potency, µM (highest dose often 46.2 µM), without a hit: top-dose activity change, negative = growth inhibition, hits mostly inhibitors | 420,000 tested, 12% active | AID 686979; further: potency means the concentration at half of the fitted maximal effect; on the % scale 0 is the no-effect control and ±100 the full control effect; nearly all actives have a fitted effect of over 55% in size
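Cell growth measured by CellTiter-Glo luminescence after a minimum 48 h, 37 C compound exposure with 20 nM CPT in Tdp1-knockout DT40 cells stably expressing hTDP1, seeded 400/well; qHTS titration format.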
TDP1 block – blocks human tyrosyl-DNA phosphodiesterase 1 | recombinant TDP1, AlphaScreen DNA substrate cleavage | Potency, µM (series often up to 130 µM), inactives show at the top dose activity change, negative = inhibition, most hits filed as inhibitors | AID 485290 | Q9NUW8 | 350,000 tested, 0.28% active; further: potency means the concentration at half of the fitted maximal effect; on the % scale 0 is the no-effect control and ±100 the full control effect; nearly all actives have a fitted effect of over 40% in size
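Here, a 5' biotin and 3' phosphotyrosine-FITC DNA oligonucleotide reports Tdp1 activity: intact substrate bridges AlphaScreen beads, while cleavage leaves a 3' phosphate and drops signal. All incubations at room temperature.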
Numbers without * were called inactive; u = inconclusive; x = not tested or not shown; [ ] = dose if it differs, or a comment. Unless noted, the call rests on the fitted dose curve; in most records, active means well fitted curve in the direction sought with a large enough effect; inconclusive means small, poorly fitted or top-dose-only effect, or another doubt; inactive means no such curve, though single readings can be large; an effect the other way counts as inactive or inconclusive.

item | SMILES | uPA generation | miR-21 FLuc | TDP1 cell noCPT | DT40 TDP1 CPT | TDP1 block
1 | COc1cccc(C(=O)NCC(c2cccnc2)N2CCN(c3ccccc3OC)CC2)c1 (configuration not stated) | -13.2% | 12.6% | 23.1µM* | 20.6µM* | x
2 | COc1ccc(C(=O)NCC(c2cccnc2)N2CCN(c3ccccc3OC)CC2)cc1OC (configuration not stated) | -2.5% | -4.0% | u | 20.6µM* | 0.0%
3 | COc1ccccc1N1CCN(C(CNC(=O)c2ccco2)c2cccnc2)CC1 (configuration not stated) | -4.9% | 5.0% | u | u | 3.3%
4 | COc1cc(/C=C(\C#N)C(=O)NCc2cccs2)ccc1O | -10.7% | -3.2% | -24.2% | -15.8% | 4.2%
5 | CCCCCCSC1=C(C#N)C(=O)NC2(CCCCC2)S1 | 0.4% | -40.2% | -9.8% | 1.6% | 7.7%
6 | O=C1CCCC2=C1C(c1ccc(Cl)cc1)n1c(s/c(=C\c3ccc4ccncc4c3)c1=O)=N2 (configuration not stated) | -2.0% | -2.1% | 20.6µM* | u | 1.8%
7 | Cn1c(Cl)cnc1C1CC(=O)c2cc(Cl)ccc2O1 (configuration not stated) | -12.5% | u | 2.59µM* | 4.11µM* | 7.9%
8 | O=C1CC(c2ccc(Cl)cc2)Oc2ccc(Cl)cc21 (configuration not stated) | -2.9% | x | u | u | x

The closing four compounds of the part before lead into the next.
item | SMILES | uPA generation | miR-21 FLuc | TDP1 cell noCPT | DT40 TDP1 CPT | TDP1 block
5 | CCCCCCSC1=C(C#N)C(=O)NC2(CCCCC2)S1 | 0.4% | -40.2% | -9.8% | 1.6% | 7.7%
6 | O=C1CCCC2=C1C(c1ccc(Cl)cc1)n1c(s/c(=C\c3ccc4ccncc4c3)c1=O)=N2 (configuration not stated) | -2.0% | -2.1% | 20.6µM* | u | 1.8%
7 | Cn1c(Cl)cnc1C1CC(=O)c2cc(Cl)ccc2O1 (configuration not stated) | -12.5% | u | 2.59µM* | 4.11µM* | 7.9%
8 | O=C1CC(c2ccc(Cl)cc2)Oc2ccc(Cl)cc21 (configuration not stated) | -2.9% | x | u | u | x
9 | CCCCN(C)CCNC(=O)c1nn(-c2ccc(OC)cc2)c(=O)c2c1c1ccccc1n2C | 16.4% | -1.2% | 18.4µM* | u | 0.0%
10 | CCN(C(=O)c1nn(-c2ccc(OC)cc2)c(=O)c2c1c1ccccc1n2C)c1ccc(OC)cc1 | -0.4% | 2.9% | -24.7% | -1.7% | 0.0%
11 | COc1ccc(-n2nc(C(=O)NCc3cc(OC)ccc3OC)c3c4ccccc4n(C)c3c2=O)cc1 | 2.8% | 0.0% | -11.8% | -24.9% | -2.7%
12 | COc1ccc(-n2nc(C(=O)NCCc3ccc(OC)c(OC)c3)c3c4ccccc4n(C)c3c2=O)cc1 | x | -9.5% | 14.6µM* | 16.4µM* | 2.3%
13 | COc1ccccc1-n1c(C)cc(C=O)c1C | 2.5% | -1.5% | -27.8% | -20.0% | 3.9%
14 | COc1ccc(-n2cc(C(=O)c3cc4ccccc4oc3=O)c(C(C)=O)n2)cc1 | -1.3% | -3.7% | u | 23.1µM* | 0.0%
15 | C=C[C@]1(C)C[C@@H](OC(=O)CSCCN(CC)CC)[C@]2(C)C(C)CC[C@]3(CCC(=O)[C@H]32)[C@@H](C)[C@@H]1O (some centres not stated) | -18.4% | x | 8.2µM* | 8.2µM* | x
16 | C=C[C@@]1(C)C[C@H](OC(=O)CSC(C)(C)CNC(=O)[C@@H](N)C(C)C)[C@@]2(C)C(C)CC[C@@]3(CCC(=O)[C@@H]32)[C@H](C)[C@H]1O (some centres not stated) | x | x | 0.0794µM* | 0.112µM* | x

Following part
item | SMILES | uPA generation | miR-21 FLuc | TDP1 cell noCPT | DT40 TDP1 CPT | TDP1 block
17 | O=c1c2c(nc3c(-c4ccc(Cl)cc4)c[nH]n13)CCCC2 | -10.5% | 28.5% | 3.98µM* | 3.55µM* | 4.0%
18 | Cc1[nH]n2c(=O)c3c(nc2c1-c1ccc(F)cc1)CCCC3 | 1.0% | 1.1% | u | 16.4µM* | -5.1%
19 | O=c1c2c(nc3c(-c4cccc5ccccc45)c[nH]n13)CCC2 | -2.2% | -0.7% | u | 25.1µM* | 13.6%
20 | Cc1cccc(C)c1NC(=O)CN(C)C(=O)c1ccccc1OCc1ccc(F)cc1 | -3.0% | x | -21.2% | -12.4% | x
21 | Cn1nc(C(=O)NCC2COc3ccccc3O2)c2ccccc2c1=O (configuration not stated) | -13.3% | x | 20.6µM* | 23.1µM* | 0.0%
22 | O=C(NCC1COc2ccccc2O1)c1ccc(NC(=O)C(c2ccccc2)c2ccccc2)cc1 (configuration not stated) | -17.9% | 15.8% | 9.2µM* | 18.4µM* | 0.0%
23 | COc1ccc(-n2nc(C(=O)NCC(=O)NCC3COc4ccccc4O3)c3ccccc3c2=O)cc1 (configuration not stated) | 3.3% | 10.3% | u | u | 4.9%
24 | COc1ccc(C2CC(c3ccc(OC)c(OC)c3)=NN2S(C)(=O)=O)cc1 (configuration not stated) | -1.8% | -36.8% | u | 18.4µM* | x

Following part
item | SMILES | uPA generation | miR-21 FLuc | TDP1 cell noCPT | DT40 TDP1 CPT | TDP1 block
25 | CS(=O)(=O)N1N=C(c2ccccc2)CC1c1ccc2nccnc2c1 (configuration not stated) | -1.9% | -22.8% | 25.9µM* | u | 5.3%
26 | CNS(=O)(=O)c1cccc(C(=O)OCc2cc(=O)oc3c(C)c(O)ccc23)c1 | -2.3% | 11.4% | 18.4µM* | u | -18.5%
27 | Cc1ccc(NC(=O)COC(=O)c2cccc3c2C(=O)c2ccccc2C3=O)c(C)c1 | -11.7% | -3.3% | u | u | 2.6%
28 | Cc1ccc(NC2=CC(=O)C(=O)c3ccccc32)c(C)c1 | -6.2% | x | 18.4µM* | 4.61µM* | -0.2%[56.1 µM]
29 | O=C1C=C(Nc2ccccc2O)c2ccccc2C1=O | -13.2% | 21.4% | 3.26µM* | 3.66µM* | 10.7%
30 | O=C1C=C(NCc2ccccc2)c2ccccc2C1=O | -2.0% | u | 14.6µM* | 5.8µM* | 3.7%
31 | Cc1ccc(-n2nc(C(=O)NCc3ccc(C)o3)c3c4ccccc4n(C)c3c2=O)cc1 | 0.9% | 0.7% | u | -29.2% | 5.3%
32 | COc1ccc(C(=O)NC2=NCCS2)cc1S(=O)(=O)N1CCOCC1 | x | x | 5.0% | 6.3% | x

Rewritten field by field: 2 of the compounds above
(31) Cc1ccc(-n2nc(C(=O)NCc3ccc(C)o3)c3c4ccccc4n(C)c3c2=O)cc1
  uPA generation: 0.9%
  miR-21 FLuc: 0.7%
  TDP1 cell noCPT: u
  DT40 TDP1 CPT: -29.2%
  TDP1 block: 5.3%
(32) COc1ccc(C(=O)NC2=NCCS2)cc1S(=O)(=O)N1CCOCC1
  uPA generation: x
  miR-21 FLuc: x
  TDP1 cell noCPT: 5.0%
  DT40 TDP1 CPT: 6.3%
  TDP1 block: x

Going on with the list.
item | SMILES | uPA generation | miR-21 FLuc | TDP1 cell noCPT | DT40 TDP1 CPT | TDP1 block
33 | COC(=O)/C(=C\c1c[nH]c2ccccc12)NC(C)=O | -1.2% | 2.1% | 0.8% | 1.4% | 2.1%
34 | Cn1c2ccccc2c2cc(/C=N/NC(=O)c3cc(O)ccc3O)ccc21 | -10.4% | -0.2% | 14.6µM* | 11.6µM* | -11.7%
35 | CCn1c2ccccc2c2cc(/C=N/NC(=O)c3ccccc3)ccc21 | -10.1% | 16.5% | 16.4µM* | 14.6µM* | 0.0%
36 | COc1cc(C(=O)N/N=C/c2ccc3c(c2)c2ccccc2n3C)ccc1O | -12.1% | 15.4% | 14.6µM* | u | 5.9%
37 | COc1cc(/C=N/NC(=O)Cn2nnc3ccccc32)ccc1O | -1.0% | 9.5% | u | -13.1% | 5.8%
38 | Cn1c2ccccc2c2cc(/C=N/NC(=O)c3cc(O)cc(O)c3)ccc21 | -1.0% | -14.6% | u | u | x
39 | COc1cc(/C=N/NC(=O)CCn2c3ccccc3c3ccccc32)ccc1O | -13.3% | 12.5% | 23.1µM* | u | 2.6%
40 | Cc1c(C)n(CCCN(C)C)c2ncnc(NC3CCCCC3)c12 | -2.6% | -18.0% | u | u | x
41 | COc1cc(C=NNC(=O)c2ccccc2-n2cccc2)ccc1O | -7.8% | x | u | 25.9µM* | 3.6%
42 | O=C(N/N=C\c1ccc(O)c([N+](=O)[O-])c1)c1ccccc1-n1cccc1 | -2.9% | -5.8% | u | -4.9% | 11.3%
43 | Cc1cc(C)n2c(Nc3cccc(C(F)(F)F)c3)c(-c3ccsc3)nc2n1 | x | 14.3% | 16.4µM* | 16.4µM* | -7.5%

From PubChem
